Values quoted from earlier work, collected in US10550155B2, “Anticancer peptides” (priority 2018, dated 2020).

Tests used:
Conditions in all cases: cited from earlier work
fibroblasts = system: fibroblasts
[1] = system: THP-1-derived macrophages
THP-1 monocytes = system: THP-1 monocytes
HepG2 cells = system: HepG2 cells
human erythrocytes = system: human erythrocytes

[K^3] temporin-SHa
Cytotoxicity on fibroblasts (literature) (fibroblasts): no cytotoxicity
Cytotoxicity on THP-1-derived macrophages (literature) [1]: low cytotoxicity
Cytotoxicity on THP-1 monocytes (literature) (THP-1 monocytes): low cytotoxicity
Cytotoxicity on HepG2 cells (literature) (HepG2 cells): no cytotoxicity
Cytotoxicity on human erythrocytes (literature) (human erythrocytes): low cytotoxicity
